From patent US20250326753A1, “DUAL CXCR4-BTK INHIBITORS” (X4 Pharmaceuticals, Inc., priority 2022, published 2025)

The chains behind the UniProt entries cited, without tags or fusion partners.
UniProt P06241, whole entry: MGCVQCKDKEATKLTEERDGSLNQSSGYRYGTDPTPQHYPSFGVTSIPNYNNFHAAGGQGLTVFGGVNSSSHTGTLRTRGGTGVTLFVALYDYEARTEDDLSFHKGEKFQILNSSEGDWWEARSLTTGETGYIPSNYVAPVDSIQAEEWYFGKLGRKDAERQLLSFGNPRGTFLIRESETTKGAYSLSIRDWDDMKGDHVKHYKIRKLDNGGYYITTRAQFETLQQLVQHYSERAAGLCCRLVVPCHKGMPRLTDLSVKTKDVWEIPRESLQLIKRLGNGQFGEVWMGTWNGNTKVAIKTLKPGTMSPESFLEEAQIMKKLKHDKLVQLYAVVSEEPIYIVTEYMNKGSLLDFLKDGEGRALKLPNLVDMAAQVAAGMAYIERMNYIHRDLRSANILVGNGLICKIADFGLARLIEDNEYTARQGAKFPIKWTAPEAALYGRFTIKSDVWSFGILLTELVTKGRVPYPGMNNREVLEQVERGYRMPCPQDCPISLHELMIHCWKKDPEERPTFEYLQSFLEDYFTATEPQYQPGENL

Legend:
FYN = FYN (Homo sapiens, UniProt P06241); experiment: PanQinase kinase panel: FYN; settings: read-out: INHIBITORY EFFECT @ 1 uM: FYN
SRC = SRC (Homo sapiens, UniProt P12931); experiment: PanQinase kinase panel: SRC; settings: read-out: INHIBITORY EFFECT @ 1 uM: SRC

O=C(c1ccc(Oc2ccccc2)cc1Cl)c1c[nH]c2ncnc(N[C@@H]3CC[C@@H](CO)OC3)c12 [ARQ-531, (2-chloro-4-phenoxyphenyl) (4-(((3R,6S)-6-(hydroxymethyl)tetrahydro-2H-pyran-3-yl)amino)-7H-pyrrolo[2,3-d]pyrimidin-5-yl) methanone]
inhibition at 1 µM (FYN): 90 to 100%
inhibition at 1 µM (SRC): 70 to 89%
